# PubChem BioAssay AID493213 (Broad Institute, 2011)
# The list shows a part of the results, in another mix than the full data. Active and inactive are the calls of the source.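 Rule for the calls: active = dose response lowering luminescence by over half the proteasome blocker control effect, potency within ten times top dose; inactive = change in the opposite direction, plus the rest.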
# Experiment: proteasome chymotrypsin-like activity inhibition in U2OS, dose response, counter-screen for HIF activator project, cell-based, luminescence, dry powder, set 3 (AID 493213)
# Settings: Proteasome-Glo luminescence, at 38 µM (top of the series)
# Method in brief: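 repeats = duplicates | test system = U2OS cells | amount = 2,500 U2OS cells per well | schedule = 24 h plating, 4 h compound exposure, 2 h room-temperature reagent | detection = Proteasome-Glo luminescence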
smiles,measurement,value
O=c1[nH]c2ccccc2n1C1CCN(Cc2ccc(O)c3ncccc23)CC1,"activity change, negative = inhibition",inactive: 27.9%
